Data reported in PubChem BioAssay (NCI).
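Compound exposure: 48 hours, 5 concentrations, 96-well plates. GI50 is the concentration that inhibits growth by half. TGI: concentration producing complete growth inhibition.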

Legend:
Experiment in all cases: growth of human tumour cells (NCI), 48 h
A498 renal = test system: A498 renal
BT-549 breast = test system: BT-549 breast
CCRF-CEM leukemia = test system: CCRF-CEM leukemia
HCT-116 colon = test system: HCT-116 colon
HCT-15 colon = test system: HCT-15 colon
HL-60(TB) leukemia = test system: HL-60(TB) leukemia
HS 578T breast = test system: HS 578T breast
K-562 leukemia = test system: K-562 leukemia
KM12 colon = test system: KM12 colon
LOX IMVI melanoma = test system: LOX IMVI melanoma
MCF7 breast = test system: MCF7 breast
MDA-MB-435 = test system: MDA-MB-435
MDA-N = test system: MDA-N
MOLT-4 leukemia = test system: MOLT-4 leukemia
NCI-H522 lung = test system: NCI-H522 lung
NCI/ADR-RES ovarian = test system: NCI/ADR-RES ovarian
OVCAR-3 ovarian = test system: OVCAR-3 ovarian
RPMI-8226 leukemia = test system: RPMI-8226 leukemia
RXF 393 renal = test system: RXF 393 renal
SK-MEL-5 melanoma = test system: SK-MEL-5 melanoma
SNB-75 CNS = test system: SNB-75 CNS
SR leukemia = test system: SR leukemia
SW-620 colon = test system: SW-620 colon
T-47D breast = test system: T-47D breast
UACC-62 melanoma = test system: UACC-62 melanoma
786-0 renal = test system: 786-0 renal
A549 NSCLC = test system: A549 NSCLC
ACHN renal = test system: ACHN renal
CAKI-1 renal = test system: CAKI-1 renal
COLO 205 colon = test system: COLO 205 colon
DU-145 prostate = test system: DU-145 prostate
EKVX NSCLC = test system: EKVX NSCLC
HCC-2998 colon = test system: HCC-2998 colon
HOP-62 NSCLC = test system: HOP-62 NSCLC
HOP-92 NSCLC = test system: HOP-92 NSCLC
HT29 colon = test system: HT29 colon
IGROV1 ovarian = test system: IGROV1 ovarian
M14 melanoma = test system: M14 melanoma
MDA-MB-231 breast = test system: MDA-MB-231 breast
NCI-H226 lung = test system: NCI-H226 lung
NCI-H23 lung = test system: NCI-H23 lung
NCI-H322M lung = test system: NCI-H322M lung
NCI-H460 lung = test system: NCI-H460 lung
OVCAR-4 ovarian = test system: OVCAR-4 ovarian
OVCAR-5 ovarian = test system: OVCAR-5 ovarian
OVCAR-8 ovarian = test system: OVCAR-8 ovarian
PC-3 prostate = test system: PC-3 prostate
SF-268 CNS = test system: SF-268 CNS
SF-295 CNS = test system: SF-295 CNS
SF-539 CNS = test system: SF-539 CNS
SK-MEL-2 melanoma = test system: SK-MEL-2 melanoma
SK-MEL-28 melanoma = test system: SK-MEL-28 melanoma
SK-OV-3 ovarian = test system: SK-OV-3 ovarian
SN12C renal = test system: SN12C renal
SNB-19 CNS = test system: SNB-19 CNS
TK-10 renal = test system: TK-10 renal
U251 CNS = test system: U251 CNS
UACC-257 melanoma = test system: UACC-257 melanoma
UO-31 renal = test system: UO-31 renal

C[C@H](O)[C@H]1/C=C/C=C\C(=O)O[C@@H]2C[C@H]3O[C@@H]4[C@@H]5O[C@]5(C)CCC4(COC(=O)[C@H]4O[C@]4(C)[C@@H](O)CO1)[C@]2(C)[C@]31CO1 (stereo partly drawn)
TGI (A498 renal): 438 nM
TGI (BT-549 breast): 52.6 nM
GI50 (CCRF-CEM leukemia): 35.8 nM
TGI (CCRF-CEM leukemia): 240 nM
TGI (HCT-116 colon): 16.6 nM
TGI (HCT-15 colon): 571 nM
TGI (HL-60(TB) leukemia): 219 nM
TGI (HS 578T breast): 44.1 nM
GI50 (K-562 leukemia): < 10 nM
TGI (K-562 leukemia): 23800 nM
TGI (KM12 colon): 239 nM
TGI (LOX IMVI melanoma): 15.5 nM
GI50 (MCF7 breast): 13.4 nM
TGI (MCF7 breast): 239 nM
GI50 (MDA-MB-435): 22.2 nM
TGI (MDA-MB-435): 111 nM
GI50 (MDA-N): 16.9 nM
TGI (MDA-N): 61.2 nM
TGI (MOLT-4 leukemia): 215 nM
TGI (NCI-H522 lung): 11 nM
GI50 (NCI/ADR-RES ovarian): 1740 nM
TGI (NCI/ADR-RES ovarian): 19500 nM
TGI (OVCAR-3 ovarian): 1330 nM
TGI (RPMI-8226 leukemia): 269 nM
TGI (RXF 393 renal): 37 nM
TGI (SK-MEL-5 melanoma): 16.9 nM
TGI (SNB-75 CNS): 101 nM
GI50 (SR leukemia): 12.5 nM
TGI (SR leukemia): 215 nM
TGI (SW-620 colon): 3260 nM
TGI (T-47D breast): 71.7 nM
TGI (UACC-62 melanoma): 152 nM

O=[N+]([O-])C(F)(CN(COCN(CC(F)([N+](=O)[O-])[N+](=O)[O-])CC(F)([N+](=O)[O-])[N+](=O)[O-])CC(F)([N+](=O)[O-])[N+](=O)[O-])[N+](=O)[O-]
GI50 (786-0 renal): 385 nM
TGI (786-0 renal): 1140 nM
GI50 (A498 renal): 5370 nM
TGI (A498 renal): 11600 nM
GI50 (A549 NSCLC): 4460 nM
TGI (A549 NSCLC): 14800 nM
GI50 (ACHN renal): 334 nM
TGI (ACHN renal): 660 nM
GI50 (BT-549 breast): 1630 nM
TGI (BT-549 breast): 4430 nM
GI50 (CAKI-1 renal): 1550 nM
TGI (CAKI-1 renal): 4420 nM
GI50 (CCRF-CEM leukemia): 370 nM
TGI (CCRF-CEM leukemia): 1580 nM
GI50 (COLO 205 colon): 445 nM
TGI (COLO 205 colon): 1680 nM
GI50 (DU-145 prostate): 1720 nM
TGI (DU-145 prostate): 4110 nM
GI50 (EKVX NSCLC): 1910 nM
TGI (EKVX NSCLC): 5560 nM
GI50 (HCC-2998 colon): 3170 nM
TGI (HCC-2998 colon): 6050 nM
GI50 (HCT-116 colon): 878 nM
TGI (HCT-116 colon): 2310 nM
GI50 (HCT-15 colon): 1370 nM
TGI (HCT-15 colon): 4530 nM
GI50 (HL-60(TB) leukemia): 159 nM
TGI (HL-60(TB) leukemia): 424 nM
GI50 (HOP-62 NSCLC): 4900 nM
TGI (HOP-62 NSCLC): 9580 nM
GI50 (HOP-92 NSCLC): 452 nM
TGI (HOP-92 NSCLC): 1590 nM
GI50 (HS 578T breast): 2660 nM
TGI (HS 578T breast): 6670 nM
GI50 (HT29 colon): 1310 nM
TGI (HT29 colon): 3200 nM
GI50 (IGROV1 ovarian): 405 nM
TGI (IGROV1 ovarian): 1960 nM
GI50 (K-562 leukemia): 363 nM
TGI (K-562 leukemia): 1490 nM
GI50 (KM12 colon): 315 nM
TGI (KM12 colon): 659 nM
GI50 (LOX IMVI melanoma): 1090 nM
TGI (LOX IMVI melanoma): 2630 nM
GI50 (M14 melanoma): 1560 nM
TGI (M14 melanoma): 3220 nM
GI50 (MCF7 breast): 1760 nM
TGI (MCF7 breast): 4290 nM
GI50 (MDA-MB-231 breast): 230 nM
TGI (MDA-MB-231 breast): 1020 nM
GI50 (MDA-MB-435): 1090 nM
TGI (MDA-MB-435): 3320 nM
GI50 (MDA-N): 231 nM
TGI (MDA-N): 736 nM
GI50 (MOLT-4 leukemia): 1180 nM
TGI (MOLT-4 leukemia): 3900 nM
GI50 (NCI-H226 lung): 3650 nM
TGI (NCI-H226 lung): 8150 nM
GI50 (NCI-H23 lung): 1880 nM
TGI (NCI-H23 lung): 4640 nM
GI50 (NCI-H322M lung): 8600 nM
TGI (NCI-H322M lung): 22500 nM
GI50 (NCI-H460 lung): 1990 nM
TGI (NCI-H460 lung): 5290 nM
GI50 (NCI-H522 lung): 193 nM
TGI (NCI-H522 lung): 402 nM
GI50 (NCI/ADR-RES ovarian): 1240 nM
TGI (NCI/ADR-RES ovarian): 3580 nM
GI50 (OVCAR-3 ovarian): 1910 nM
TGI (OVCAR-3 ovarian): 3920 nM
GI50 (OVCAR-4 ovarian): 2520 nM
TGI (OVCAR-4 ovarian): 7120 nM
GI50 (OVCAR-5 ovarian): 3150 nM
TGI (OVCAR-5 ovarian): 7330 nM
GI50 (OVCAR-8 ovarian): 1240 nM
TGI (OVCAR-8 ovarian): 4680 nM
GI50 (PC-3 prostate): 1680 nM
TGI (PC-3 prostate): 3790 nM
GI50 (RPMI-8226 leukemia): 506 nM
TGI (RPMI-8226 leukemia): 2460 nM
GI50 (RXF 393 renal): 3330 nM
TGI (RXF 393 renal): 20400 nM
GI50 (SF-268 CNS): 2510 nM
TGI (SF-268 CNS): 6820 nM
GI50 (SF-295 CNS): 2850 nM
TGI (SF-295 CNS): 7340 nM
GI50 (SF-539 CNS): 1710 nM
TGI (SF-539 CNS): 3160 nM
GI50 (SK-MEL-2 melanoma): 2320 nM
TGI (SK-MEL-2 melanoma): 6920 nM
GI50 (SK-MEL-28 melanoma): 1330 nM
TGI (SK-MEL-28 melanoma): 3210 nM
GI50 (SK-MEL-5 melanoma): 1050 nM
TGI (SK-MEL-5 melanoma): 2810 nM
GI50 (SK-OV-3 ovarian): 6580 nM
TGI (SK-OV-3 ovarian): 15100 nM
GI50 (SN12C renal): 31.9 nM
TGI (SN12C renal): 164 nM
GI50 (SNB-19 CNS): 4820 nM
TGI (SNB-19 CNS): 13700 nM
GI50 (SNB-75 CNS): 2240 nM
TGI (SNB-75 CNS): 5900 nM
GI50 (SW-620 colon): 777 nM
TGI (SW-620 colon): 2560 nM
GI50 (T-47D breast): 2910 nM
TGI (T-47D breast): 8540 nM
GI50 (TK-10 renal): 1260 nM
TGI (TK-10 renal): 3230 nM
GI50 (U251 CNS): 677 nM
TGI (U251 CNS): 2220 nM
GI50 (UACC-257 melanoma): 2350 nM
TGI (UACC-257 melanoma): 6150 nM
GI50 (UACC-62 melanoma): 1720 nM
TGI (UACC-62 melanoma): 3770 nM
GI50 (UO-31 renal): 712 nM
TGI (UO-31 renal): 1630 nM
